Assay results as given in ChEMBL document CHEMBL1126621 (J Med Chem, 1993).

By UniProt entry, the sequences of proteins in these tests, tags left out. Where a name states a change or a piece, a line headed by the entry shows the natural chain unless it says otherwise.
UniProt P41145: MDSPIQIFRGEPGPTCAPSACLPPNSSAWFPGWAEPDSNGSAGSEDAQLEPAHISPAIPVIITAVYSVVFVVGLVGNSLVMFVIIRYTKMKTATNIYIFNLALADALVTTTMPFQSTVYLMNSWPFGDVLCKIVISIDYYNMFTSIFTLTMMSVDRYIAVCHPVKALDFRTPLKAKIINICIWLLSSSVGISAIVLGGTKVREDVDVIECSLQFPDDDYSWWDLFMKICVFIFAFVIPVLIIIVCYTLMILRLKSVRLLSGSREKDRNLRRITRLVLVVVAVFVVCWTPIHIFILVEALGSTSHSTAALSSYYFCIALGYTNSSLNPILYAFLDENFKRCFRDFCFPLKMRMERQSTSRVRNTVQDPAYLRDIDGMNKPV
UniProt P41143, whole entry, looked up: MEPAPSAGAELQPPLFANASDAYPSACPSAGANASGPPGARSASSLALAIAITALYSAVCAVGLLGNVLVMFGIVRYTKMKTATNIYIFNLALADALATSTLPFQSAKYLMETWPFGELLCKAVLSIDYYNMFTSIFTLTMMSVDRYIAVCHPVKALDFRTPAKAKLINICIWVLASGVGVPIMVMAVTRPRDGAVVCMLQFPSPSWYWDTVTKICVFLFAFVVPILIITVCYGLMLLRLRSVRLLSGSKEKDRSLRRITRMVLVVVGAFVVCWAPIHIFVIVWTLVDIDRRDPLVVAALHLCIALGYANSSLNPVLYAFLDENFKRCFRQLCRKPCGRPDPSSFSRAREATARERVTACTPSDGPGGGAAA

Target: Opioid receptors; delta & kappa (Homo sapiens) (UniProt P41145+P41143)
Assay: Relative affinity for delta and kappa opioid receptors of guinea pig brain homogenate
Conditions: Cavia porcellus

CC[C@H](C)[C@H](NC(=O)[C@H](CCCNC(=N)N)NC(=O)[C@H](CCCNC(=N)N)NC(=O)[C@H](CC(C)C)NC(=O)[C@H](Cc1ccccc1)NC(=O)CNC(=O)CNC(=O)[C@@H](N)Cc1ccc(O)cc1)C(=O)N[C@@H](CCCNC(=N)N)C(=O)N1CCC[C@H]1C(=O)N[C@@H](CCCCN)C(=O)N[C@@H](CC(C)C)C(=O)N[C@@H](CCCCN)C(=O)O [ANALOG OF DYNORPHIN A]
Selectivity: 36
